In assay [1] the target is eIF4E Ser209Ala (knock-in, 4Eki mice) (mouse (endogenous in forebrain)) (UniProt P63073). Description: pull-down; cap-column pulldown: 500 ug forebrain lysate protein with 50 ul m7GDP agarose in buffer C (50 mM MOPS-KOH pH 7.4, 100 mM NaCl, 50 mM NaF, 0.5 mM EDTA, 0.5 mM EGTA, 0.1 mM GTP), 90 min at 4 C; eIF4E held by its ligand m7GDP; cap-bound fraction immunoblotted and quantified, normalised to input.

In assay [2] the target is eukaryotic Initiation Factor 4E (eIF4E), wild type (mouse (endogenous in forebrain)) (UniProt P63073). The description is as above.

Results on two substances are retold here after publication PMC5824745.

In turn, “ribosomal protein rpL13a (from UniProt P19253 1-203) (natural protein)” came in with a cap-bound protein (arbitrary units, normalised to input) (arbitrary units) in assay [1] of 0.487.

“ribosomal protein rpL13a (from UniProt P19253 1-203) (natural protein; other documents disagree on this pair)” returned a cap-bound protein (arbitrary units, normalised to input) (arbitrary units) in assay [2] of 0.998.
